# Test results as given in patent EP0525063B1, “Use of specific fatty acids in the manufacture of a medicament for their Iontophoresis delivery” (priority 1990, dated 1991).
structure (smiles),measurement,setting,value
"CCCCCCCC/C=C\CCCCCCCC(=O)O [Oleic acid, cis-9-octadecenoic acid]",enhancement in delivery rate,0.5% oleic acid and ethanol/water (E/W) in the donor solution,about a five-fold enhancement
same,Enhancement Factor,"delivery of oxymorphone-HCl, oleic acid 0.25 mg/ml (0.025%), E/W 48/52, 1 mA, pig skin, listed as oleic acid",no enhancement
